The record followed here is publication PMC8495968, “Towards optimizing peptide-based inhibitors of protein–protein interactions: predictive saturation variation scanning (PreSaVS)” (RSC Chemical Biology, 2021).

The chains behind the UniProt entries cited, without tags or fusion partners. Residues count along the entry.
SUMO-1 (Homo sapiens), P63165, UniProt P63165, 2-97: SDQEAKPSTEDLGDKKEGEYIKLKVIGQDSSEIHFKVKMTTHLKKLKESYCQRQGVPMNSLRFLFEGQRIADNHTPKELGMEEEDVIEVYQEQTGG

The target in this experiment is SUMO-1 (Homo sapiens), P63165. Kind of experiment: fluorescence anisotropy competition. As to conditions: modification not given.

Turning to DNEKECIIVWEKK [SIM2705–2717 2705-2717, P49792], the IC50 is 21.9 µM.

In general, IC50 refers to the concentration at which inhibition is half-maximal. Low values mean greater potency, high ones weaker potency.
